This experiment has as its target BCL6-NCOR2(SMRT) corepressor protein-protein interaction (Homo sapiens (Human), UniProt P41182). Kind of experiment: NanoBRET cell assay in transfected HEK293T cells. The experiment is classed as cell-based. The note with it: 6 hr. On the technique in general: Bioluminescence resonance energy transfer reports proximity on the nanometre scale.

As for `Cn1c(=O)cc(NC(C)(C)c2ncccn2)c2cc(Nc3ccnc(Cl)c3C#N)ccc21` [Example 1a, 2-Chloro-4-[[1-methyl-4-[(1-methyl-1-pyridin-2-yl-ethyl)amino]-2-oxo-6-quinolyl]amino]pyridine-3-carbonitrile], the IC50 (as a rule, the midpoint of a concentration-inhibition curve) (NanoBRET cell pIC50, further generated data (Table 2b)) is 468 nM and it took 676 nM to reach half-maximal inhibition (NanoBRET cell pIC50, initially generated data (Table 2a)) (IC50).

The record behind these values is patent publication US11161839B2, “2-quinolone derived inhibitors of BCL6” (Cancer Research Technology Limited, priority 2017, dated 2021).
